Test results published in PubChem BioAssay (NCATS).
Only a part is listed here, and it is no random draw. Records with an inconclusive call do not appear. Activity calls are given as the source filed them. Unless noted, the call rests on the fitted dose curve; in most records, active means well fitted curve in the direction sought with a large enough effect; inconclusive means small, poorly fitted or top-dose-only effect, or another doubt; inactive means no such curve, though single readings can be large; an effect the other way counts as inactive or inconclusive.

What was measured:
[1] = Cell Viability - N2a (AID 540); conditions: N2a mouse neuroblastoma cell viability; at 92.2 µM (top of the series);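 further: plate controls were DMSO alone for no effect and tamoxifen control for full effect; nearly all actives have a fitted effect of over 45% in size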
How it was run: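 N2a mouse neuroblastoma, 1500 cells/well, 5 hr settle; compound 40 hr, 37 °C; CellTiter-Glo 20 min RT; luminescence; Hill-fit AC50.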

[2] = Cell Viability - NIH 3T3 (AID 541);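 further: cells exposed to compound for 40 hours; plate controls were DMSO alone for no effect and tamoxifen positive control for full effect; nearly all actives have a fitted effect of over 25% in size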
How it was run: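 qHTS format; 40 hr compound exposure, 37 °C; CellTiter-Glo luminescence (cellular ATP) read-out after 20 min at RT. Decrease in ATP = cytotoxicity; AC50 from standard Hill fit.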

[3] = Cell Viability - HUV-EC-C (AID 542); conditions: HUV-EC-C endothelial cell viability, qHTS; at 92.2 µM (top of the series);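 further: cells exposed to compound for 40 hours; on the % scale 0 is the no-effect control and ±100 the full control effect; nearly all actives have a fitted effect of over 35% in size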
How it was run: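 Luminescent ATP read-out (CellTiter-Glo, 20 min room temperature) after 40 hr compound treatment of HUV-EC-C cells at 37 °C. Concentration-response data fitted with the standard Hill equation to give AC50; tamoxifen and doxorubicin served as positive controls.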

[4] = Cell Viability - H-4-II-E (AID 543); conditions: H-4-II-E rat hepatoma viability; at 92.2 µM (top of the series);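 further: cells exposed to compound for 40 hours; on the % scale 0 is the no-effect control and ±100 the full control effect; nearly all actives have a fitted effect of over 35% in size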
How it was run: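 qHTS, rat hepatoma H-4-II-E, 1500 cells/well; 40 hr compound exposure, 37 °C; CellTiter-Glo ATP luminescence after 20 min RT; AC50 by standard Hill fit.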

[5] = Cell Viability - SH-SY5Y (AID 544); conditions: SH-SY5Y neuroblastoma cell viability; at 92.2 µM (top of the series);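 further: cells exposed to compound for 40 hours; nearly all actives have a fitted effect of over 55% in size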
How it was run: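 SH-SY5Y, 1500 cells/well, 5 hr pre-incubation 37 °C; cpd 40 hr 37 °C; CellTiter-Glo 20 min RT; luminescence (ATP) read. qHTS concentration-response, Hill fit → AC50. Tamoxifen, doxorubicin as positive controls.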

[6] = Cell Viability - Renal Proximal Tubule (AID 545); conditions: renal proximal tubule cells viability, primary cells of rat origin; at 91.7 µM (top of the series);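 further: cells exposed to compound for 40 hours; nearly all actives have a fitted effect of over 40% in size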
How it was run: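 Rat kidney proximal tubule cells, freshly isolated; 1000 cells/well, 5 hr settle, compound 40 hr 37 °C. CellTiter-Glo 20 min RT, luminescence read. AC50 by standard Hill fit.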

[7] = Cell Viability - Mesenchymal (AID 546); conditions: mesenchymal cells viability, qHTS; at 91.7 µM (top of the series);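 further: cells exposed to compound for 40 hours before reading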
How it was run: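 Human renal mesenchymal cells (glomerulus-derived), 1000 cells/well, 5 hr 37 °C pre-incubation; compound 40 hr, 37 °C; CellTiter-Glo, 20 min RT; luminescence; AC50 via Hill equation.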

[8] = Cellular Toxicity (caspase-3) HepG2 (AID 654); conditions: HepG2 caspase-3 activation, luminescence, 0% = DMSO only, 100% = tamoxifen; at 92.2 µM (top of the series);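 further: cells exposed to compound for 16 hours before reading; 0% = DMSO alone and 100% = caspase signal from 100 µM tamoxifen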
How it was run: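 Luminescent Caspase-Glo 3/7 readout after 16 hr compound exposure of human hepatocellular carcinoma HepG2 cells at 37 °C; qHTS concentration-response, normalized DMSO = 0%, 100 uM tamoxifen = 100%; AC50 by standard Hill equation.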

[9] = Cellular Toxicity (caspase-3) Jurkat (AID 655); conditions: Jurkat caspase-3 activation, luminescence, DMSO = 0%, tamoxifen = 100%; at 92.2 µM (top of the series);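 further: cells exposed to compound for 16 h at 37 °C before reading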
How it was run: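 Luminescent caspase-3/7 readout (aminoluciferin substrate cleavage) in human T-cell leukemia Jurkat cells after 16 hr compound exposure. Concentration-response normalized to DMSO and 100 uM tamoxifen; AC50 by standard Hill equation.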

[10] = Cellular Toxicity (caspase-3) HUV-EC-C (AID 656); conditions: HUV-EC-C cells, caspase-3 activation (apoptosis), vehicle = 0, 100 µM tamoxifen = 100%; at 92.2 µM (top of the series)
How it was run: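 Luminescent caspase-3/7 activation (aminoluciferin substrate cleavage) in HUV-EC-C cells after 16 hr compound exposure, 37°C. Signal normalized to DMSO basal and 100 uM tamoxifen as 100%; AC50 from concentration-response fitted with the Hill equation.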

[11] = Cellular Toxicity (caspase-3) SHSY5Y (AID 657); conditions: SH-SY5Y caspase-3 activation, DMSO zero, 10 µM staurosporine = 100%; at 91.7 µM (top of the series);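 further: cells exposed to compound for 16 hours at 37 °C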
How it was run: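 Luminescent caspase-3/7 readout (aminoluciferin release) in SH-SY5Y cells after 16 h compound exposure in complete medium. Activity scaled between DMSO basal and 10 uM staurosporine as 100%; concentration-response fitted to Hill equation for AC50.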

[12] = Cellular Toxicity (caspase-3) BJ (AID 658); conditions: BJ fibroblasts, luminescence, normalized: DMSO 0%, staurosporine 100%; at 91.7 µM (top of the series);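 further: cells exposed to compound for 16 hours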
How it was run: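 qHTS, BJ fibroblasts, 1000 cells/well; 5 hr preincubation, 16 hr compound, 37 °C; Caspase-Glo 3/7 reagent, 1 hr RT; luminescence. DMSO = 0%, 10 uM staurosporine = 100%. Hill-equation AC50.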

[13] = Cellular Toxicity (caspase-3) MRC-5 (AID 659); conditions: MRC-5 cells, luminescence, normalized: DMSO 0%, 10 µM staurosporine 100%; at 91.7 µM (top of the series)
How it was run: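 MRC-5 fibroblasts, 1500/well; 16 h cpd, 37 °C; Caspase-Glo 3/7, 1 h RT; lumi read. Norm: DMSO = 0%, 10 uM staurosporine = 100%. Hill-fit AC50 from qHTS conc-response.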

[14] = Cellular Toxicity (caspase-3) Mesangial (AID 660); conditions: mesangial cells, normalized: DMSO 0%, 100 µM tamoxifen 100%; at 91.7 µM (top of the series);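 further: combined caspase 3 and 7 activity read by Caspase-Glo luminescence; cells exposed to compound for 16 h before the caspase read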
How it was run: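 Luminescent Caspase-Glo 3/7 readout (aminoluciferin substrate cleavage, 20 min RT) after 16 h compound exposure at 37 °C of normal human mesangial cells. Signal increase normalized between DMSO basal and 100 uM tamoxifen; Hill-equation AC50.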

[15] = Cellular Toxicity (caspase-3) SK-N-SH (AID 661); conditions: SK-N-SH caspase-3 activation, qHTS, DMSO as zero, staurosporine as full; at 91.7 µM (top of the series);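 further: cells exposed to compound for 16 hours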
How it was run: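 Luminescent Caspase-Glo 3/7 read-out after 16 hr compound exposure of SK-N-SH neuroblastoma cells at 37 °C. Signal increase normalized to DMSO (basal) and 10 uM staurosporine (100%); AC50 from Hill equation fits of qHTS concentration-response data.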

[16] = Cellular Toxicity (caspase-3) H-4-II-E (AID 663); conditions: H-4-II-E rat hepatoma, scaled: DMSO 0%, 100 µM tamoxifen 100%; at 92.2 µM (top of the series);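 further: cells exposed to compound for 16 hr before readout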
How it was run: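 H-4-II-E rat hepatoma, 1500 cells/well, 5 hr settle at 37 °C; compound 16 hr, 37 °C, complete medium; Caspase-Glo 3/7, 20 min RT; luminescence. DMSO = 0%, 100 uM tamoxifen = 100%; Hill-equation AC50.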

[17] = Stat Signaling Pathway (AID 446; active means well fitted curve in either direction with a large enough effect, not every such curve was filed as active;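 further: ME-180 cervical cancer cells given 40 pM IL-6 alongside compound; SIE-controlled beta-lactamase reporter measured as 460/530 nm FRET emission ratio; on the % scale 0 is the no-effect control and ±100 the full control effect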); conditions: ME-180 (cervical carcinoma) SIE beta-lactamase reporter, IL-6 stimulated, 5 h; at 38 µM (top of the series) unless noted
How it was run: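 FRET read-out (405 nm excitation, 460/530 nm emission) of a beta-lactamase reporter under a STAT-inducible element in ME-180 cervical carcinoma cells. Cells with compound receive 40 pM IL-6 for 5 h. Values are normalised to AC90 stimulation and AC90 JAK-inhibitor controls.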

Cc1ccc([N+](=O)[O-])cc1[N+](=O)[O-]
inactive: activity change, negative = cytotoxicity [1] -10.6% | Potency [2] | activity change, negative = cytotoxicity [3] -2.56% | activity change, negative = cytotoxic [4] 0.149% | viability change, negative = cytotoxic [5] -3.04% | activity change, negative = cytotoxicity [6] 12.2% | activity change, negative = cytotoxicity [7] 8.9% | caspase-3 activation [8] 1.11% | caspase-3 activation [9] 1.85% | caspase-3 activation [10] -1.52% | caspase-3 activation [11] -1.87% | caspase-3 activation [12] -0.553% | caspase-3 activation [13] 0.129% | caspase-3 activation [14] 1.45% | caspase-3 activation [15] -2.47% | caspase-3 activation [16] -0.686%

CCC(C)(OO)OOC(C)(CC)OO (stereo not drawn)
inactive: activity change, negative = cytotoxicity [1] -0.54% | Potency [2] | activity change, negative = cytotoxicity [3] 12.3% | activity change, negative = cytotoxic [4] 0.495% | viability change, negative = cytotoxic [5] -0.864% | activity change, negative = cytotoxicity [6] 6.13% | activity change, negative = cytotoxicity [7] 4.88% | caspase-3 activation [8] 0.67% | caspase-3 activation [9] 4.56% | caspase-3 activation [10] 1.98% | caspase-3 activation [11] 2.79% | caspase-3 activation [12] -1.82% | caspase-3 activation [13] -0.827% | caspase-3 activation [14] 1.58% | caspase-3 activation [15] -2.48% | caspase-3 activation [16] -0.518%

Cc1c([N+](=O)[O-])cccc1[N+](=O)[O-]
inactive: activity change, negative = cytotoxicity [1] -13.7% | Potency [2] | activity change, negative = cytotoxicity [3] -5.08% | activity change, negative = cytotoxic [4] -2.85% | viability change, negative = cytotoxic [5] -0.067% | activity change, negative = cytotoxicity [6] -9.96% | activity change, negative = cytotoxicity [7] 10.9% | caspase-3 activation [8] 0.625% | caspase-3 activation [9] 0.925% | caspase-3 activation [10] 0.912% | caspase-3 activation [11] 0.825% | caspase-3 activation [12] 0.633% | caspase-3 activation [13] -0.284% | caspase-3 activation [14] 0.303% | caspase-3 activation [15] -0.801% | caspase-3 activation [16] 0.0469%

O=[N+]([O-])c1cccc([N+](=O)[O-])c1
inactive: activity change, negative = cytotoxicity [1] -8.45% | activity change, negative = cytotoxicity [3] -0.274% | viability change, negative = cytotoxic [5] 5.63% | activity change, negative = cytotoxicity [6] -2.59% | activity change, negative = cytotoxicity [7] 6.62% | caspase-3 activation [8] 0.152% | caspase-3 activation [9] 0.834% | caspase-3 activation [10] -0.599% | caspase-3 activation [11] 1.26% | caspase-3 activation [12] 0.995% | caspase-3 activation [13] 3.35% | caspase-3 activation [14] 0.259% | caspase-3 activation [15] -0.201% | caspase-3 activation [16] -0.891%

CCOP(=O)(CC)OCC
inactive: activity change, negative = cytotoxicity [1] 0.755% | Potency [2] | activity change, negative = cytotoxicity [3] 4.55% | activity change, negative = cytotoxic [4] 1.52% | activity change, negative = cytotoxicity [6] -7.44% | activity change, negative = cytotoxicity [7] 5.08% | caspase-3 activation [8] -1% | caspase-3 activation [9] 0.234% | caspase-3 activation [10] 2.41% | caspase-3 activation [11] -3% | caspase-3 activation [12] 0.582% | caspase-3 activation [13] 0.0114% | caspase-3 activation [14] -0.688% | caspase-3 activation [15] 1.06% | caspase-3 activation [16] 1.71%

CCN(CC)CC(O)COC(=O)C(O)(c1ccccc1)C1CCCCC1 (stereo not drawn)
inactive: activity, negative = inhibition [17] 5.83% [at 17.2 µM]
